Patent US10400004B2, “Chemical synthesis method of phillyrin” (priority 2014, dated 2019)

System: Vero cells
Assay: Drug cytotoxicity assay (MTT) on Vero cells
Assay type: cell-based, African green monkey
Settings: 72 h, Probit regression
Protocol: Vero cells were subcultured for 1-2 days to form a film. […] The digestion was drained after needle-like holes occurred on the cell surface, then cells were dispersed with a few milliliters of medium, counted, then diluted to about 5×10^7 cells/L with DMEM containing 10% fetal bovine serum and transferred to a 96-pore culture plate until monolayer formed.
Cytotoxicity test: the drugs were diluted according to the concentrations shown in Table 1-1 for cytotoxicity assays.
Different concentrations of drugs diluted with the above maintenance medium (DMEM containing 2% fetal calf serum) were added dropwise to Vero monolayer cells with 0.2 ml per pore, and for each concentration, the drugs were added in sextuplicate in 6 pores respectively. In addition, 6 pores were set up as normal control (without drugs) while another 6 pores as blank control (medium only). Cells were grown in a 37° C. incubator under 5% CO2. CPE was visualized under the invert microscope and recorded daily. […] Then the culture was shaken for 5 min, measured OD value at 492 nm to calculate the cell survival ratio. The cell survival ratio was analyzed using a Probit regression model in SPSS 18.0 statistical software, and the maximal nontoxic concentration (TC0) and median toxic concentration (TC50) of drugs against Vero cells were calculated.

NC(=O)c1ncn([C@@H]2O[C@H](CO)[C@@H](O)[C@H]2O)n1 [Ribavirin]
Maximal non-cytotoxic concentration (TC0): 0.065 g/L
